Yeast mating assay 1: variants of the scFv Ab-14

All variants were tested on one target, the spike HR2 peptide PDVDLGDISGINAS (SARS-CoV-2).

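The parent was found by panning a naive human phage display library on the peptide. AAYL49 was designed without a model: most single CDR substitutions and a random sample of double and triple ones. In AlphaSeq, yeast of one mating type display the scFv and yeast of the other type display the target. The frequency of each diploid, read from paired DNA barcodes, reflects how well the two displayed proteins bind. A regression on co-assayed BCL2-family reference pairs converts the normalised counts of each replicate to an apparent Kd. The assay was run in three technical replicates.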

The variants keep the light chain, the linker and the frameworks of Ab-14 (scFv order VH, a (GGGGS)3 linker, VL).
VH: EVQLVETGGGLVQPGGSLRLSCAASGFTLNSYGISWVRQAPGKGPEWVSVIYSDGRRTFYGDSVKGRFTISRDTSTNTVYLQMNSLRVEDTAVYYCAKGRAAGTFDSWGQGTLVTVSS
VL: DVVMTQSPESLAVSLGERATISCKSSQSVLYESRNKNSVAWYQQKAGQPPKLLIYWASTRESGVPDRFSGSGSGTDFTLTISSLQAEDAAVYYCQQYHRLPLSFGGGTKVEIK

Substitutions are numbered in sequence along the VH above, starting at 1 (not Kabat). Scale: log10 of Kd in nM, estimated from mating counts; low values are strong binders. Replicates are averaged; those with no signal do not enter the mean. "nd" means that the variant was in the library but no mating with the target was seen in that replicate; the authors take this as a sign of poor binding, and no number exists. Empty control strains, which show no peptide, gave a signal in 15% of pairings with library AAYL49; the median was 4.06 and 95% of these signals were weaker than 2.83. No background was subtracted. The control count says in how many pairings with the empty strains this scFv gave a signal. Parent in this assay: reference entry 0.65, copy in this library 4.11 (one replicate of three).

The variant I34S+V50A+F59A showed 4.79, 4.73, nd (mean 4.76; controls 3 of 9).
The variant F27L+G55E+T58D showed nd, nd, 3.93 (controls 0 of 9).
The variant G61H+D62F+R100V showed nd, nd, 3.87 (controls 1 of 9).
The variant N30K+S35G+G103L showed nd, nd, nd (controls 2 of 9).
The variant Y52P+D54T+R57V showed nd, nd, nd (controls 1 of 9).
The variant G55Q+Y60D+S107C showed nd, nd, nd (controls 1 of 9).
The variant S31R+Y32Q+F105M showed nd, nd, nd (controls 0 of 9).
The variant K65T+F105H+D106S showed 1.87, 1.76, 1.61 (mean 1.75; controls 0 of 9).
The variant G33A+Y60P+G99Y showed 5.29, nd, nd (controls 1 of 9).
The variant G26E+R56Y+D106T showed nd, nd, nd (controls 0 of 9).
The variant G33S+S107D showed nd, nd, nd (controls 1 of 9).
The variant S53D+G99Q showed nd, nd, nd (controls 0 of 9).
The variant L29N+G61W+S107V showed nd, 3.82, nd (controls 3 of 9).
The variant G55K+S63C+K65H showed 3.89, 4.22, 4.97 (mean 4.36; controls 4 of 9).
The variant V50P+K65L+R100E showed nd, 3.74, nd (controls 3 of 9).
The variant N30M+V64N+G99M showed nd, nd, nd (controls 0 of 9).
The variant G26L+Y52M+R56N showed nd, nd, 4.67 (controls 1 of 9).
The variant G33Q+I51N+R100T showed 3.76, nd, nd (controls 5 of 9).
The variant N30F+Y52I+T104I showed nd, nd, nd (controls 2 of 9).
The variant R56A+K65E+A101C showed 2.82, 2.82, 3.01 (mean 2.88; controls 6 of 9).
The variant N30S+G99I+S107Y showed nd, nd, nd (controls 0 of 9).
The variant L29I+N30V+G33W showed nd, 4.04, 5.89 (mean 4.96; controls 2 of 9).
The variant S31E+R56V+A102I showed 0.31, 0.58, 0.64 (mean 0.51; controls 4 of 9).
The variant S31H+F59C+D62V showed 4.26, nd, nd (controls 0 of 9).
The variant F27E showed 0.33, 0.59, 0.37 (mean 0.43; controls 0 of 9).
The variant F27Q+F59K+S63Q showed nd, 4.10, nd (controls 4 of 9).
The variant F59L+D62L+F105L showed nd, nd, nd (controls 0 of 9).
The variant I34Q+D62P+D106M showed nd, nd, nd (controls 1 of 9).
The variant G26R+L29Y+D54G showed nd, nd, nd (controls 0 of 9).
The variant D62A+V64M+A102G showed 2.95, nd, 4.75 (mean 3.85; controls 4 of 9).

Picked from the list: the 4 lowest averages where every replicate gave a value.

Variant F27E showed 0.33, 0.59, 0.37 (mean 0.43; controls 0 of 9).
Variant S31E+R56V+A102I showed 0.31, 0.58, 0.64 (mean 0.51; controls 4 of 9).
Variant K65T+F105H+D106S showed 1.87, 1.76, 1.61 (mean 1.75; controls 0 of 9).
Variant R56A+K65E+A101C showed 2.82, 2.82, 3.01 (mean 2.88; controls 6 of 9).

Source: Engelhart et al. 2022 (doi:10.1038/s41597-022-01779-4), MIT Lincoln Laboratory and A-Alpha Bio; data file from the FLAb repository.